Curated experimental data: properties

Data: OPERA 2.9 data sets, kmansouri/OPERA on GitHub.

Melting points are in °C.
The boiling point refers to atmospheric pressure (760 mmHg), by the definition of the set.
logP is the log10 of the octanol-water partition coefficient; higher is more lipophilic.
Water solubility is log10 of mol/L, nominally at 25 °C; higher is more soluble.
Vapor pressures (log10 mmHg) refer to near room temperature, 15 to 30 °C; higher is more volatile.
Henry's law constant (air-water partitioning) is log10 of atm·m3/mol, nominally at 25 °C.
The unbound fraction in human plasma runs from 0 (all bound) to 1 (all free).
Clint is human hepatic intrinsic clearance in µL/min per million cells; 0 means that no clearance was seen.

- C=CC(=O)NC(C)(C)C: logP (octanol/water) 1.45; water solubility -1.803 (log10 mol/L)
- Nc1cc(Cl)ccc1Oc1ccc(Cl)cc1Cl: logP (octanol/water) 3.47; water solubility -5.045 (log10 mol/L); log vapor pressure -5.886 (log10 mmHg)
- O=[N+]([O-])c1c2ccccc2c2ccc3cccc4ccc1c2c43: MP 250.8 °C; logP (octanol/water) 5.44
- CNCCOCCN(C)C: boiling point 189.2 °C; log vapor pressure -0.267 (log10 mmHg)
- CCB(CC)OC: water solubility -4.119 (log10 mol/L); log vapor pressure 1.695 (log10 mmHg)
- N=c1[nH]c2c(s1)CC(N)CC2 (stereo unspecified): MP 216.9 °C; logP (octanol/water) 0.2; log vapor pressure -7.552 (log10 mmHg)
- CN(C)CCN1CCN(C)CC1: logP (octanol/water) -0.351; log vapor pressure -0.669 (log10 mmHg)
- COC(=O)CCCCCCCCCCCCCCCCC(=O)OC: boiling point 391 °C; water solubility -8.745 (log10 mol/L); log vapor pressure -5.046 (log10 mmHg)
- CCCCOCC(C)OCC(C)O (stereo unspecified): boiling point 229.9 °C; log vapor pressure -1.386 (log10 mmHg)
- COCCCn1c(=O)c2c(N)c3c(=O)c4ccccc4c(=O)c3c(N)c2c1=O: MP 194 °C; logP (octanol/water) 4.2; water solubility -8.181 (log10 mol/L); log vapor pressure -13.05 (log10 mmHg)
- CCC(=O)C(C)CC=C(C)C (stereo unspecified): water solubility -2.701 (log10 mol/L); log vapor pressure -0.554 (log10 mmHg)
- Nc1ccc([N+](=O)[O-])cc1S(=O)(=O)[O-].[Na+]: logP (octanol/water) 0.58; water solubility -1.768 (log10 mol/L)
- CCCCCCCC[N+](C)(CCCCCCCC)CCCCCCCC.[Cl-]: logP (octanol/water) 4.5; water solubility -4.283 (log10 mol/L)
- CN1CCCN(C)C1=O: logP (octanol/water) 0.05; log vapor pressure -1.824 (log10 mmHg)
- CCNc1nc(Cl)nc(N(CC)CC)n1: log vapor pressure -4.171 (log10 mmHg); log H -7.038 (log10 atm·m3/mol)
- C=CC(=O)NCCO: MP -27 °C; logP (octanol/water) -0.73; log vapor pressure -3.803 (log10 mmHg)
- C[C@@H]1O[C@@H](O[C@@H]2[C@@H](Oc3cc(O)c(C(=O)CCc4ccc(O)cc4)c(O)c3)O[C@@H](CO)[C@H](O)[C@H]2O)[C@H](O)[C@H](O)[C@H]1O: logP (octanol/water) 0.932; water solubility -3.072 (log10 mol/L)
- CN1C(=O)CC(c2ccccc2)C1=O (stereo unspecified): logP (octanol/water) 0.7; water solubility -1.933 (log10 mol/L)
- OC1CSC(O)CS1 (stereo unspecified): logP (octanol/water) 0.127; log vapor pressure -6.206 (log10 mmHg)
- FC(F)(F)C(F)(F)C(F)(F)C(F)(F)C(F)(F)C(F)(F)C(F)(F)C(F)(F)Br: logP (octanol/water) 6.1; water solubility -7.397 (log10 mol/L); log vapor pressure 0.986 (log10 mmHg)
- C=C1C2CCC(C)(OCC)C1CCC2(C)C (stereo unspecified): water solubility -4.734 (log10 mol/L); log vapor pressure -1.824 (log10 mmHg)
- O=c1c2ccc3c(=O)n4c5ccccc5nc4c4ccc(c2c34)c2nc3ccccc3n12: logP (octanol/water) 0.165; water solubility -5.633 (log10 mol/L)
- C[Si](C)(C)O[Si](C)(C)O[Si](C)(C)O[Si](C)(C)O[Si](C)(C)O[Si](C)(C)O[Si](C)(C)O[Si](C)(C)C: MP -63 °C; logP (octanol/water) 7.7
- CCCCOC(=O)CCCCC(=O)OCCCC: logP (octanol/water) 4.17; log vapor pressure -3.803 (log10 mmHg)
- NCCNCc1ccccc1: logP (octanol/water) 0.71; log vapor pressure -2.28 (log10 mmHg)
- CC1(C)CC(O)CC(C)(C)N1: logP (octanol/water) 0.24; log vapor pressure -2.71 (log10 mmHg)
- NC(=O)NN=Cc1ccc([N+](=O)[O-])o1: water solubility -2.971 (log10 mol/L); fu 0.856; intrinsic clearance 0 µL/min/10^6 cells
- O=C(O)c1cccc(N(Cc2cccnc2)c2ccc(OC(F)F)c(OC(F)F)c2)c1: fu 0.0142; intrinsic clearance 7.69 µL/min/10^6 cells
- COc1nc(C(F)(F)F)nc(=NC(O)=NS(=O)(=O)c2ccccc2C(F)(F)F)[nH]1: water solubility -3.75 (log10 mol/L); log H -9.001 (log10 atm·m3/mol)

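OPERA's authors assembled the values from existing databases and did not measure them anew. One number stands for a compound and property, with no spread given. Method and conditions are not stated for these values. The measured form (salt, isomer or mixture) is not always the one drawn. Some entries may be limits or estimates that an upstream database listed as plain numbers.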